Data set [1] is described as follows: Stability stress testing (ambient light, 40° C./75% RH, 80° C., 7 days; XRPD and HPLC purity). The data set is classed as physicochemical. Particulars: HPLC purity after 7 days, open vial. The protocol: Approximately 5 mg of the appropriate samples were placed into 2 mL clear glass vials and the vials were all stored open under the conditions of ambient light, 40° C./75% RH, and 80° C. for 7 days, respectively. The ambient light sample was left open on the bench at room temperature. The 80° C. sample was placed open into an 80° C. oven.

The nature of data set [2]: Thermodynamic aqueous solubility studies (de-ionized water, 24 h, HPLC concentration, filtrate pH, XRPD of solid).

As to “isopropyl 2-((5-acrylamido-4-((2-(dimethylamino)ethyl) (methyl)amino)-2-methoxyphenyl)amino)-4-(1-methyl-1H-indol-3-yl)pyrimidine-5-carboxylate hippurate”, the “Purity, 40° C./75% RH” value in data set [1] came to 99.6. The “Solubility in Water” value in data set [2] (de-ionized water (pH 6.97), slurry shaken at ambient temperature for 24 h, filtrate by HPLC, salts of Compound (A)) worked out at 100 µg/mL. In addition, in data set [2] (pH of filtrate after 24 h slurry in de-ionized water (pH 6.97), ambient temperature), the “pH at Saturation” value turned out to be 5.61.

Values taken from US12084431B2, “Pharmaceutical salts of pyrimidine derivatives and method of treating disorders” (ARIAD Pharmaceuticals, Inc., priority 2018, dated 2024).
